Data as given in PMC4286194 (Biochemical Journal, 2015).

What was measured:
JNK2 = JNK2 (Homo sapiens, UniProt P45984); test: biochemical; details: read-out: % activity remaining
SYK = SYK (Homo sapiens, UniProt P43405); test: Kinase profiling; details: read-out: % activity remaining
TLK1 = TLK1 (Homo sapiens, UniProt Q9UKI8); test: biochemical; details: read-out: % activity remaining
ERK8 = ERK8 (Homo sapiens, UniProt Q8TD08); test: biochemical; details: read-out: % activity remaining
MELK = MELK (Homo sapiens, UniProt Q14680); test: biochemical; details: read-out: % activity remaining
ROCK 2 = ROCK 2 (Rattus norvegicus, UniProt Q62868); test: Kinase profiling; details: read-out: % activity remaining
PAK4 = PAK4 (Homo sapiens, UniProt O96013); test: biochemical; details: read-out: % activity remaining
NEK2a = NEK2a (Homo sapiens, UniProt P51955); test: biochemical; details: read-out: % activity remaining
EPH-B1 = EPH-B1 (Homo sapiens, UniProt P54762); test: biochemical; details: read-out: % activity remaining
MKK1 = MKK1 (Homo sapiens, UniProt Q02750); test: biochemical; details: read-out: % activity remaining
GSK3 beta = GSK3 beta (Homo sapiens, UniProt P49841); test: biochemical; details: read-out: % activity remaining
ASK1 = ASK1 (Homo sapiens, UniProt Q99683); test: biochemical; details: read-out: % activity remaining
ERK2 = ERK2 (Homo sapiens, UniProt P28482); test: biochemical; details: read-out: % activity remaining
DYRK1A = DYRK1A (Homo sapiens, UniProt Q13627); test: biochemical; details: read-out: % activity remaining
OSR1 = OSR1 (Homo sapiens, UniProt O95747); test: biochemical; details: read-out: % activity remaining
EPH-A4 = EPH-A4 (Homo sapiens, UniProt P54764); test: biochemical; details: read-out: % activity remaining
MARK3 = MARK3 (Homo sapiens, UniProt P27448); test: biochemical; details: read-out: % activity remaining
NEK6 = NEK6 (Homo sapiens, UniProt Q9HC98); test: biochemical; details: read-out: % activity remaining
MKK6 = MKK6 (Homo sapiens, UniProt P52564); test: biochemical; details: read-out: % activity remaining
TTK = TTK (Homo sapiens, UniProt P33981); test: biochemical; details: read-out: % activity remaining
AMPK = test: Kinase profiling; assay type: biochemical; details: 1 µM
CDK2-Cyclin A = CDK2-Cyclin A (Homo sapiens, UniProt P24941); test: biochemical; details: read-out: % activity remaining
PIM3 = PIM3 (Homo sapiens, UniProt Q86V86); test: biochemical; details: read-out: % activity remaining
MST3 = MST3 (Homo sapiens, UniProt Q9Y6E0); test: biochemical; details: read-out: % activity remaining
DYRK2 = DYRK2 (Homo sapiens, UniProt Q92630); test: biochemical; details: read-out: % activity remaining
p38 delta MAPK = p38 delta MAPK (Homo sapiens, UniProt O15264); test: biochemical; details: read-out: % activity remaining
ERK1 = ERK1 (Homo sapiens, UniProt P27361); test: biochemical; details: read-out: % activity remaining
WNK1 = WNK1 (Homo sapiens, UniProt Q9H4A3); test: biochemical; details: read-out: % activity remaining
MAPKAP-K2 = MAPKAP-K2 (Homo sapiens, UniProt P49137); test: biochemical; details: read-out: % activity remaining
PIM1 = PIM1 (Homo sapiens, UniProt P11309); test: biochemical; details: read-out: % activity remaining
MARK4 = MARK4 (Homo sapiens, UniProt Q96L34); test: biochemical; details: read-out: % activity remaining
SRPK1 = SRPK1 (Homo sapiens, UniProt Q96SB4); test: biochemical; details: read-out: % activity remaining
CK1 delta = CK1 delta (Homo sapiens, UniProt P48730); test: biochemical; details: read-out: % activity remaining
DAPK1 = DAPK1 (Homo sapiens, UniProt P53355); test: biochemical; details: read-out: % activity remaining
JNK3 = JNK3 (Homo sapiens, UniProt P53779); test: biochemical; details: read-out: % activity remaining
PAK2 = PAK2 (Homo sapiens, UniProt Q13177); test: biochemical; details: read-out: % activity remaining
CK2 = CK2 (Homo sapiens, UniProt P68400); test: biochemical; details: read-out: % activity remaining
JNK1 = JNK1 (Homo sapiens, UniProt P45983); test: biochemical; details: read-out: % activity remaining
SIK3 = SIK3 (Homo sapiens, UniProt Q9Y2K2); test: Kinase profiling; details: read-out: % activity remaining

Question: For Cc1nc(Nc2ncc(C(=O)Nc3c(C)cccc3Cl)s2)cc(N2CCN(CCO)CC2)n1 [Dasatinib], which remaining activity at 1 µM (JNK2) is on record?
Answer: 125%

Question: What about the remaining activity at 1 µM (SYK) of the same compound?
Answer: 90%

Question: What about the remaining activity at 1 µM (TLK1) of the same compound?
Answer: 124%

Question: And the remaining activity at 0.1 µM (ERK8)?
Answer: 90 ± 14%

Question: What about the remaining activity at 0.1 µM (MELK) of the same compound?
Answer: 112 ± 7%

Question: And the remaining activity at 1 µM (MELK)?
Answer: 128 ± 7%

Question: And the remaining activity at 0.1 µM (ROCK 2)?
Answer: 130 ± 10%

Question: And the remaining activity at 1 µM (ROCK 2)?
Answer: 132 ± 7%

Question: And the remaining activity at 0.1 µM (PAK4)?
Answer: 137 ± 21%

Question: What about the remaining activity at 1 µM (PAK4) of the same compound?
Answer: 132 ± 16%

Question: What about the remaining activity at 0.1 µM (NEK2a) of the same compound?
Answer: 122 ± 11%

Question: And the remaining activity at 0.1 µM (EPH-B1)?
Answer: -1 ± 1%

Question: What about the remaining activity at 1 µM (EPH-B1) of the same compound?
Answer: -1 ± 2%

Question: What about the remaining activity at 0.1 µM (MKK1) of the same compound?
Answer: 118 ± 10%

Question: What about the remaining activity at 1 µM (MKK1) of the same compound?
Answer: 134 ± 16%

Question: What about the remaining activity at 1 µM (GSK3 beta) of the same compound?
Answer: 121 ± 12%

Question: What about the remaining activity at 0.1 µM (ASK1) of the same compound?
Answer: 108 ± 7%

Question: And the remaining activity at 1 µM (ASK1)?
Answer: 118 ± 7%

Question: What about the remaining activity at 0.1 µM (ERK2) of the same compound?
Answer: 93 ± 9%

Question: What about the remaining activity at 0.1 µM (DYRK1A) of the same compound?
Answer: 111 ± 4%

Question: What about the remaining activity at 1 µM (DYRK1A) of the same compound?
Answer: 126 ± 19%

Question: What about the remaining activity at 0.1 µM (OSR1) of the same compound?
Answer: 100 ± 1%

Question: What about the remaining activity at 0.1 µM (EPH-A4) of the same compound?
Answer: 2%

Question: And the remaining activity at 1 µM (EPH-A4)?
Answer: 2 ± 2%

Question: And the remaining activity at 1 µM (MARK3)?
Answer: 104 ± 5%

Question: And the remaining activity at 0.1 µM (NEK6)?
Answer: 113 ± 4%

Question: What about the remaining activity at 1 µM (NEK6) of the same compound?
Answer: 123 ± 6%

Question: And the remaining activity at 0.1 µM (MKK6)?
Answer: 104 ± 11%

Question: And the remaining activity at 1 µM (MKK6)?
Answer: 112 ± 4%

Question: What about the remaining activity at 0.1 µM (TTK) of the same compound?
Answer: 104 ± 6%

Question: What about the remaining activity at 1 µM (TTK) of the same compound?
Answer: 109 ± 9%

Question: And the “% activity remaining” value (AMPK)?
Answer: 120 ± 5%

Question: And the remaining activity at 0.1 µM (CDK2-Cyclin A)?
Answer: 116 ± 1%

Question: And the remaining activity at 1 µM (CDK2-Cyclin A)?
Answer: 112 ± 1%

Question: And the remaining activity at 1 µM (PIM3)?
Answer: 108 ± 5%

Question: What about the remaining activity at 0.1 µM (MST3) of the same compound?
Answer: 114 ± 20%

Question: What about the remaining activity at 1 µM (MST3) of the same compound?
Answer: 93 ± 2%

Question: And the remaining activity at 1 µM (DYRK2)?
Answer: 117 ± 9%

Question: And the remaining activity at 0.1 µM (p38 delta MAPK)?
Answer: 118 ± 17%

Question: And the remaining activity at 1 µM (p38 delta MAPK)?
Answer: 133 ± 1%

Question: And the remaining activity at 1 µM (ERK1)?
Answer: 114 ± 12%

Question: What about the remaining activity at 0.1 µM (WNK1) of the same compound?
Answer: 104 ± 4%

Question: And the remaining activity at 1 µM (WNK1)?
Answer: 104 ± 12%

Question: And the remaining activity at 0.1 µM (MAPKAP-K2)?
Answer: 114 ± 4%

Question: And the remaining activity at 1 µM (MAPKAP-K2)?
Answer: 111 ± 7%

Question: And the remaining activity at 0.1 µM (PIM1)?
Answer: 90 ± 1%

Question: What about the remaining activity at 1 µM (MARK4) of the same compound?
Answer: 115 ± 24%

Question: What about the remaining activity at 0.1 µM (SRPK1) of the same compound?
Answer: 104 ± 9%

Question: What about the remaining activity at 0.1 µM (CK1 delta) of the same compound?
Answer: 113 ± 4%

Question: What about the remaining activity at 1 µM (CK1 delta) of the same compound?
Answer: 124 ± 1%

Question: What about the remaining activity at 0.1 µM (DAPK1) of the same compound?
Answer: 126 ± 10%

Question: What about the remaining activity at 0.1 µM (JNK3) of the same compound?
Answer: 108%

Question: And the remaining activity at 1 µM (JNK3)?
Answer: 113 ± 15%

Question: And the remaining activity at 0.1 µM (PAK2)?
Answer: 118 ± 2%

Question: And the remaining activity at 1 µM (PAK2)?
Answer: 119 ± 12%

Question: What about the remaining activity at 1 µM (CK2) of the same compound?
Answer: 80 ± 28%

Question: What about the remaining activity at 0.1 µM (JNK1) of the same compound?
Answer: 108 ± 4%

Question: What about the remaining activity at 1 µM (JNK1) of the same compound?
Answer: 121 ± 9%

Question: Which results are given for COc1cc(Nc2c(C#N)cnc3cc(OCCCN4CCN(C)CC4)c(OC)cc23)c(Cl)cc1Cl [Bosutinib, bosutinib]?
Answer: remaining activity at 1 µM (SYK): 39 ± 1%; % activity remaining (AMPK): 26 ± 2%; remaining activity at 0.1 µM (SIK3): 9%; remaining activity at 1 µM (SIK3): 2%
